Where two headings read alike, the source gives them in different places.
Columns and labels:
PA1946 (rspB) [1] = target: T1, PA1946 (rspB) (Pseudomonas aeruginosa, UniProt Q9I2F8); assay: DSF thermal shift ligand screening, PA1946; format: binding, Pseudomonas aeruginosa PAO1; conditions: Tm change vs ligand-free protein
PA1946 (rspB) [2] = target: T1, PA1946 (rspB); conditions: 25 °C
PA1946 (rspB) [3] = target: T1, PA1946 (rspB); assay: biochemical

Protein sequences, listed by entry. Tags and fused reporters are not part of them. Residues count along the entry.
UniProt Q9I2F8, 30-319: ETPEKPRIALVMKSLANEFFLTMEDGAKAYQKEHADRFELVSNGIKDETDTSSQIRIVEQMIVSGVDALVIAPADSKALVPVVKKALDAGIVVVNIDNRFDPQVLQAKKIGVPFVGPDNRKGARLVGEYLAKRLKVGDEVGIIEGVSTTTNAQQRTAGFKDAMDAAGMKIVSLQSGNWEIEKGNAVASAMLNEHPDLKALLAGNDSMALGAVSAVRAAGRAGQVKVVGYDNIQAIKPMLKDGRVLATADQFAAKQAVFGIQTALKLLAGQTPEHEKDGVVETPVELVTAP

Structure (SMILES)	Tm DSF (Tm increase) (PA1946 (rspB) [1]) [°C]	Tm DSF (Tm increase) (PA1946 (rspB) [1]; listed as D-allose)	Tm DSF (Tm increase) (PA1946 (rspB) [1]; listed as D-arabinose)	KD by ITC (PA1946 (rspB) [2])	KD by ITC (PA1946 (rspB) [2]; listed as D-arabinose)	Tm DSF (Tm increase) (PA1946 (rspB) [1]; listed as D-ribose)	Kd (PA1946 (rspB) [3]) [nM]
OC[C@H]1O[C@@H](O)[C@H](O)[C@H](O)[C@@H]1O [D-Allose]	22.0	about 22 °C					
OC1OC[C@@H](O)[C@@H](O)[C@@H]1O (stereo partly drawn) [D-Arabinose]	7.5		approximately 8 °C	No binding	no binding was observed		
O[C@@H]1[C@H](O)[C@H](O)CO[C@H]1O [D-Ribose]	21.7					about 22 °C	2100 ± 100
